# Reference: PubChem BioAssay (NCI)
# Several values for one entry are separate records, joined by “and”; a condition that tells them apart may be missing. Equal values may be shown once. This is a selection; strong and weak results do not stand in their true shares.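 Interpretation: 100, growth as untreated; towards 0, rising growth inhibition; 0, no net growth; 0 to -100, cell death. Compounds scoring below 10 were considered active.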 Activity calls are given as the source filed them.
# Tested on: MDA-MB-468 breast
# Assay: NCI-60 one-dose screen, 48 h (100 = growth as untreated, 0 = no growth, -100 = all killed)
# Conditions: 10 µM unless noted
row,Structure (SMILES),growth
1,COc1ccc([As](=O)(O)O)cc1,inactive: 102%
2,O=[As](O)(O)c1ccc(I)cc1,inactive: 109%
3,COc1cccc([As]=O)c1 (stereo not given),active: -60.3%
4,CCN(CCCl)C1c2ccccc2-c2ccccc21,inactive: 103%
5,CCOC(=O)Nc1cccc([As](=O)(O)O)c1,inactive: 95.1%
6,NC(=O)Nc1ccc([As](=O)(O)O)cc1,inactive: 109%
7,O=[N+]([O-])c1ccc(Nc2ccc(Oc3ccc([N+](=O)[O-])cc3[N+](=O)[O-])cc2)c([N+](=O)[O-])c1,inactive: 37.4%
8,O=C(Nc1ccc([N+](=O)[O-])cc1)N(CCBr)CCBr,inactive: 103%
9,O=[As](O)(c1cccs1)c1cccs1,inactive: 95.8%
10,Nc1ccc(N(CCCl)CCCl)cc1,inactive: 54.8%
11,O=C(O)/C=C\c1cccc(N(CCCl)CCCl)c1,inactive: 104%
12,CCCN(CCCl)C1c2ccccc2-c2ccccc21,inactive: 106%
13,CC(Cc1ccccc1)N(CCCl)Cc1ccccc1 (stereo not given),inactive: 86.5%
14,CSc1ccc(Nc2c([N+](=O)[O-])cc([N+](=O)[O-])cc2[N+](=O)[O-])cc1,active: -9.71%
15,CCCCCCCNP(=S)(Cl)Cl,inactive: 109%
16,O=C(CNc1ccc([N+](=O)[O-])c([N+](=O)[O-])c1)n1cnc2ccc([N+](=O)[O-])cc21,inactive: 110%
17,COC(=O)C(=[N+]=[N-])C(=O)c1cc([N+](=O)[O-])cc([N+](=O)[O-])c1,inactive: 104%
18,CN(CCCl)/N=N/c1nc2c([nH]1)c(=O)n(C)c(=O)n2C,inactive: 114%

row,Structure (SMILES),growth
1,CC(=O)NC(C)C(=O)N(CC(C)Cl)CC(C)Cl (stereo not given),inactive: 98.3%
2,CC1(C)NC(C)(C)C(Br)C(=O)C1Br (stereo not given),inactive: 110%
3,Cc1c([N+](=O)[O-])cc(C(=O)c2cc([N+](=O)[O-])cc([N+](=O)[O-])c2)cc1[N+](=O)[O-],inactive: 101%
4,Nc1cccc2ccc([As](=O)(O)O)cc12,inactive: 94%
5,CC(Cl)CN(CC(C)Cl)C(=O)OCC(N)C(=O)O (stereo not given),inactive: 104% and inactive: 93.6%
6,O=C(c1ccccc1)C(NCCCl)c1ccccc1 (stereo not given),inactive: 106%
7,ClP1Nc2cncnc2N1 (stereo not given),inactive: 113%
8,COc1ccc(N)c([N+](=O)[O-])c1[N+](=O)[O-],inactive: 92.6%
9,CCOP(=O)(NC1CCCCC1)OCC,inactive: 111%
10,ClCCN1CCc2ccccc2C1,inactive: 100%
11,Nc1cccc2c([As](=O)(O)O)cccc12,inactive: 111%
12,CCCOP(=S)(Nc1nc(N)cc(=O)[nH]1)OCCC,inactive: 87.2%
13,O=C(OCCNCCCl)c1ccccc1,inactive: 101%
14,S=P(Cl)(N1CCCCCC1)N1CC1 (stereo not given),inactive: 88.7%
15,CCOP(=O)(Nc1ccc(C)cn1)OCC,inactive: 84.8%
16,ClCCN(CCc1ccccc1)Cc1ccccc1,inactive: 94.8%
17,ClCCNC(Cc1ccccc1)c1ccccc1 (stereo not given),inactive: 101%
